According to ChEMBL document CHEMBL5052829, “Arf6 inhibitors and related methods” (2021):

Assay: Toxicity in Plasmodium berghei ANKA infected mouse model of cerebral malaria assessed as decrease in animal mortality at 42.75 mg/kg, ip administered daily for 11 days
Assay type: organism-based
Conditions: in vivo, 264 h, time 11 day; call rule not given here

With `NCCCC[C@H](N)C(=O)Oc1cc([N+](=O)[O-])ccc1-c1cc(=O)[nH]c2c(-c3ccc(Cl)cc3)c(Cc3ccccc3)nn12` the Activity was “Active”.
